The list is not random: actives were taken first. Their share in the collection is about 3.6%.
VDR inhibitor – Inhibitors of the vitamin D receptor (VDR): qHTS; Vitamin D3 receptor (Homo sapiens), P11473; VDR-SRC2-3 peptide fluorescence polarization, 2 h; Potency, µM, without a hit: max response, negative = inhibition, actives largely listed as inhibitors; hit rate 0.93% among 400,000; AID 504847, 2011; also: potency is read from the fitted curve at half-maximal effect; % is scaled to controls: 0 for no effect and ±100 for the full control effect
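Reagent solutions, kept cold and dark, are dispensed first; compounds are then pinned in at 23 nl, plates briefly spun, and incubated 2 h at ambient temperature. Inhibition of VDR–SRC2-3 peptide binding is read by fluorescence polarization.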
PLK1 PBD block – qHTS for Inhibitors of PLK1-PDB (polo-like kinase 1 - polo-box domain): Primary Screen; Potency, µM, for the others: max response, negative = inhibition, usual class: inhibitors; AID 720504, 2013; hit rate 2.8% among 360,000; Serine/threonine-protein kinase PLK1 (Homo sapiens), P53350; Plk1 PBD binding of FITC phosphopeptide, fluorescence polarization; also: potency is read from the fitted curve at half-maximal effect; series mostly up to about 57 µM; % is scaled to controls: 0 for no effect and ±100 for the full control effect; nearly all actives have a fitted effect of over 65% in size
Rango complex inh – qHTS Assay for Inhibitors of Rango (Ran-regulated importin-beta cargo) - Importin beta complex formation | Rango CFP/YFP FRET sensor + importin beta, 45 min | Potency, µM (titrated, usually from 92.2 µM), for inactives: top-dose inhibition of complex formation | hit rate 0.031% among 340,000; calls by dose curve;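 also: potency is read from the fitted curve at half-maximal effect; 0% = DMSO wells and 100% = buffer wells lacking importin beta; nearly all actives have a fitted effect of over 15% in size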
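Inhibition scored from the CFP 486 nm/YFP 530 nm FRET ratio 45 min after adding 0.125 microM importin beta to 50 nM Rango biosensor preincubated 5 min with compound (room temperature, PBS with DTT, Tween-20, BSA). No-importin wells as positive control.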
PI5P4Ka inh – qHTS for Inhibitors of phosphatidylinositol 5-phosphate 4-kinase (PI5P4K); PI5P4Kalpha enzyme, ADP-Glo luminescence, 60 min; active compounds read low; max response, %; hit rate 1.2% among 330,000; Phosphatidylinositol 5-phosphate 4-kinase type-2 alpha (Homo sapiens), P48426; active = max response of -50% or lower; inconclusive = between -30% and -50%; inactive = -30% or higher; also: value at the top dose of about 77 µM; % is scaled to controls: 0 for no effect and ±100 for the full control effect
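ADP-Glo luminescence end-point read after a 60 min room-temperature kinase reaction of PI5P4Kalpha plus substrate, initiated with ATP at 5 microM final. Buffer: 0.038 M HEPES pH 7.4, EGTA, 0.1% CHAPS, 5% DMSO.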
Rango release inh – qHTS Assay for Inhibitors of RanGTP induced Rango (Ran-regulated importin-beta cargo) - Importin beta complex dissociation; Snurportin-1 (Homo sapiens) + GTP-binding nuclear protein Ran (Homo sapiens) + Importin …; Biochemical FRET Rango-importin beta, RanGTP-induced dissociation; Potency, µM (top dose mostly 46.1 µM), for the others: top-dose activity change, negative = inhibition; hit rate 0.071% among 340,000; AID 540253, 2011; calls by dose curve; also: potency is read from the fitted curve at half-maximal effect; % of control where 0% means no effect; nearly all actives have a fitted effect of over 45% in size
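Rango/importin beta premix (0.1/0.25 uM final), PBS + 1 mM DTT + 0.02% Tween-20 + 0.1% BSA; cpd 5 min RT; FRET pre-read; + RanGTP-RCC1 (0.6 uM Ran, 2 mM GTP, 0.2 uM RCC1); 45 min RT; FRET post-read, ex 430, em 486/530 nm.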
GCN5L2 inh – qHTS Assay for Inhibitors of GCN5L2; Histone acetyltransferase KAT2A (Homo sapiens), Q92830; GCN5L2 HAT assay, ThioGlo1 CoA-SH fluorescence; Potency, µM (titrated, usually from 58.9 µM), for inactives: at the top dose activity change, negative = inhibition, usual class: inhibitors; hit rate 0.21% among 390,000; AID 504327, 2011; also: potency is read from the fitted curve at half-maximal effect; % is scaled to controls: 0 for no effect and ±100 for the full control effect
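Compounds, pin-transferred from DMSO stocks, meet 20nM GCN5L2 for 15 min before the reaction begins with H3(1-25) peptide (75uM) and acetyl-CoA (70uM). Thiol-reactive ThioGlo1 reports CoA release over 20 min at room temperature.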
An asterisk follows results filed as active; ? = inconclusive; · = no result; ! = not active in a repeat. Unless noted, calls follow the shape of the dose curve; as a rule, active = well fitted curve in the direction sought with a large enough effect; inconclusive = small, poorly fitted or top-dose-only effect, or another doubt; inactive = no such curve, though single readings can be large; an effect the other way counts as inactive or inconclusive.

Sequences of proteins named here, by UniProt entry; tags and fusion partners are left off.
Serine/threonine-protein kinase PLK1 (Homo sapiens), P53350, UniProt P53350, whole entry, looked up: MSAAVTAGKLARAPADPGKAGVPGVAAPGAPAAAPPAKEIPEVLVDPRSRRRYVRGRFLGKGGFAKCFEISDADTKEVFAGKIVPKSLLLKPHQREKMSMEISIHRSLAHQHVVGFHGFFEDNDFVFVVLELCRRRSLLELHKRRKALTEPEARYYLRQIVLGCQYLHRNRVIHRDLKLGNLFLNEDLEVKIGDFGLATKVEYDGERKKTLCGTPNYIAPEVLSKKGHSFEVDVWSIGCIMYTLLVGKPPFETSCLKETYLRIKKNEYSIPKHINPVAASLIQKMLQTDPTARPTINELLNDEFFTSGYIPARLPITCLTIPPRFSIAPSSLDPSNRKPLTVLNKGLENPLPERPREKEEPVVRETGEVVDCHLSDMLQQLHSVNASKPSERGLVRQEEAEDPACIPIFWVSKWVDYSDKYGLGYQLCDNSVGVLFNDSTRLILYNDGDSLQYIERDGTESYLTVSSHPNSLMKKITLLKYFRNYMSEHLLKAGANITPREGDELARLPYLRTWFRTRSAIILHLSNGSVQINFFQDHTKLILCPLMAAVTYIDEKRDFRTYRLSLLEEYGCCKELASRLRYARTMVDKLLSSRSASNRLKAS
Histone acetyltransferase KAT2A (Homo sapiens), Q92830, UniProt Q92830, whole entry, looked up: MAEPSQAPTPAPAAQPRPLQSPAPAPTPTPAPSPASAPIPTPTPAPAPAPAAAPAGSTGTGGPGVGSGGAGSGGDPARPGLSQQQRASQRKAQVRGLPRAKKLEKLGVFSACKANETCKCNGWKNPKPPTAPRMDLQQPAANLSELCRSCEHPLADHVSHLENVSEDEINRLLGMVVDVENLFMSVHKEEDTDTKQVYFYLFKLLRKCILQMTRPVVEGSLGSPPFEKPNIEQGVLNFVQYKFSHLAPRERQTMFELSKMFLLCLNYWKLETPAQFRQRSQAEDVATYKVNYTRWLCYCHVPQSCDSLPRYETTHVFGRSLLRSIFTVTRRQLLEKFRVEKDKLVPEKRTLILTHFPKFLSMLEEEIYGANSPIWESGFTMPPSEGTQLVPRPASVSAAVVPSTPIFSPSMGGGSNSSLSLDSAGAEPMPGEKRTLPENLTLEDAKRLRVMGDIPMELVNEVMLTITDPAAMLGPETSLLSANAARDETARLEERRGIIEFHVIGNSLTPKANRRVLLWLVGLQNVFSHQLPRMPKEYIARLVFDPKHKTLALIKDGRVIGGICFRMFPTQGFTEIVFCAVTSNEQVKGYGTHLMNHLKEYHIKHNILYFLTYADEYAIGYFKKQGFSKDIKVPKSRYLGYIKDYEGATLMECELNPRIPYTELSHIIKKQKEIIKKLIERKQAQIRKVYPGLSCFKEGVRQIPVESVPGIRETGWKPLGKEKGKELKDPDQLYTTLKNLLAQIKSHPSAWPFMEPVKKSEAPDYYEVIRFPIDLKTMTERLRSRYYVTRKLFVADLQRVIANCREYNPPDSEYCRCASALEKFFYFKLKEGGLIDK

Assay codes: A = VDR inhibitor; B = PLK1 PBD block; C = Rango complex inh; D = PI5P4Ka inh; E = Rango release inh; F = GCN5L2 inh
COc1cc2[nH]c(=O)n(-c3ccccc3)c(=O)c2cc1OC
  A: -26%; B: -14%; C: 2%; D: 1; E: -9%; F: -18%

Cc1[nH]n(-c2ccccc2)c(=O)c1C(c1cccc([N+](=O)[O-])c1O)c1c(C)[nH]n(-c2ccccc2)c1=O
  A: ?; B: 8.4µM*; C: 9%; D: -10; E: -9%; F: -2%

CC[n+]1c(-c2ccccc2)c2cc(N)ccc2c2ccc(N)cc21
  A: 6.3µM*; B: -12%; C: 2%; D: 5; E: -12%; F: ?

O=C(O)c1ccccc1-c1c2cc(Br)c(=O)cc-2oc2[c]([Hg])c(O)c(Br)cc12
  A: 2.2µM*; B: ·; C: ·; D: ·; E: ·; F: 3.2µM*!

O=[N+]([O-])/C=C/c1c(Cl)cccc1Cl
  A: 20µM*; B: 2.7µM*; C: 0%; D: -10; E: -7%; F: ·

Cc1cccc(-n2c(O)c(C=Nc3ccc(Br)cn3)c(=O)[nH]c2=O)c1
  A: 20µM*; B: 6µM*; C: -1%; D: -26; E: -9%; F: -7%

Cc1cccc(-n2c(O)c(C=NCCN3CCCCC3)c(=O)[nH]c2=O)c1
  A: 9%; B: -6%; C: -1%; D: 2; E: 1%; F: -4%

CC(C)CC1C(C#N)=C(N)Oc2c1c(=O)oc1ccccc21 (stereo not given)
  A: ?; B: 12µM*; C: -6%; D: -19; E: -5%; F: -9%

N#CC1=C(N)Oc2c(c(=O)oc3ccccc23)C1c1ccncc1 (stereo not given)
  A: -4%; B: -2%; C: 3%; D: ·; E: 2%; F: 2%

CC(C)C[C@H](NC(=O)[C@H](CC(C)C)NC(=O)[C@H](Cc1ccccc1)NC(=O)[C@@H](N)Cc1ccc(O)cc1)C(=O)N[C@@H](CCCN=C(N)N)C(=O)N[C@@H](CC(N)=O)C(=O)N1CCC[C@H]1C(=O)O
  A: 0%; B: ·; C: ·; D: ·; E: ·; F: 0%

CN(N=O)c1ccc(O)c(O)c1
  A: 35µM*; B: ·; C: ·; D: ·; E: ·; F: 4.5µM*

CCCCC1(C2CCCC2)Cc2cc(OCCCC(=O)O)c(Cl)c(Cl)c2C1=O (stereo not given)
  A: 40µM*; B: ·; C: ·; D: ·; E: ·; F: ?

COc1ccc2c3c([nH]c2c1)C(C)=NCC3
  A: -10%; B: 1%; C: 3%; D: 1; E: ?; F: ?

CC1=NCCc2c1[nH]c1cc(O)ccc21
  A: 13%; B: 1.2µM*; C: ?; D: -3; E: ?; F: ?

C[C@@H]1CO1
  A: -3%; B: ·; C: ·; D: ·; E: ·; F: 15%

One compound at a time, as listed above:
COc1ccc2c3c([nH]c2c1)C(C)=NCC3 as listed: VDR inhibitor = -10%; PLK1 PBD block = 1%; Rango complex inh = 3%; PI5P4Ka inh = 1; Rango release inh = ?; GCN5L2 inh = ?
O=[N+]([O-])/C=C/c1c(Cl)cccc1Cl as listed: VDR inhibitor = 20µM*; PLK1 PBD block = 2.7µM*; Rango complex inh = 0%; PI5P4Ka inh = -10; Rango release inh = -7%; GCN5L2 inh = ·
COc1cc2[nH]c(=O)n(-c3ccccc3)c(=O)c2cc1OC as listed: VDR inhibitor = -26%; PLK1 PBD block = -14%; Rango complex inh = 2%; PI5P4Ka inh = 1; Rango release inh = -9%; GCN5L2 inh = -18%

Further results.
| SMILES | VDR inhibitor | PLK1 PBD block | Rango complex inh | PI5P4Ka inh | Rango release inh | GCN5L2 inh |
| --- | --- | --- | --- | --- | --- | --- |
| Cc1cccc2c3c(ccc12)C1=C(C(=O)C3=O)[C@@H](C)CO1 | 20µM* | · | · | · | · | -8% |
| C=C(C)[C@]12C[C@@H](C)[C@@]34O[C@](Cc5ccccc5)(O[C@@H]1[C@@H]3C=C(COC(=O)Cc1ccc(O)c(OC)c1)C[C@]1(O)C(=O)C(C)=C[C@@H]41)O2 | -13% | · | · | · | · | -29% |
| COCCn1c(-c2ccccc2)cc(C(=O)O)c1C | -6% | 24µM* | ? | -14 | ? | · |
| Cc1ccccc1NC(=O)c1cc(-c2ccccc2)n(CCCN2CCOCC2)c1C | -6% | 3% | 3% | -2 | 8% | -1% |
| Cc1ccc(-c2nnc(Nc3ccc(O)cc3)c3ccccc23)cc1S(=O)(=O)N1CCOCC1 | ? | · | · | · | · | 0% |
| Brc1c(Br)c(Br)c2n[nH]nc2c1Br | 45µM* | · | · | · | · | 28µM* |
| NC(=S)c1cn(C2OC(CO)C(O)C2O)c2ncnc(N)c12 (stereo not given) | ? | 27µM* | 3% | ? | 0% | -26% |
| Nc1ncnc2c1ncn2[C@@H]1O[C@@H]2CO[P@](=O)(S)O[C@H]2[C@H]1O | -2% | · | · | · | · | 15% |
| COc1ccc(-c2nc(CN3C(=O)CN=C(c4ccccc4)c4cc(Cl)ccc43)c(C)o2)cc1 | 17% | · | · | · | · | -1% |
| C=CCOc1ccc(CC2C(=O)N(C)C(=O)N(C)C2=O)cc1 | -10% | ? | -1% | ? | 7% | -13% |
| Cc1ccc(CC2C(=O)N(C)C(=O)N(C)C2=O)s1 | ? | 27µM* | -3% | · | -13% | -13% |
| CCOP(=O)(CCP(=O)(OCC)OCC)OCC.C[CH2][Sn]([Cl])([Cl])[CH2]C | ? | 8.4µM* | 2% | -1 | 18% | · |
| O=C(CSc1nc(-c2ccc(Cl)cc2)[nH]c(=O)n1)Nc1cccc(Cl)c1 | -17% | 24µM* | 3% | ? | -1% | 2% |
| COC[C@]12CN(C=O)C3C4C(OC)C1[C@@]3(C1CC3(O)C(OC)C(O)C4(OC(C)=O)C1C3OC(=O)c1ccccc1)[C@@H](OC)CC2O (stereo not given in full) | -6% | · | · | · | · | -4% |
| CN1C(=O)C(=Cc2ccc(OCC(=O)Nc3ccccc3)cc2)C(=O)N(C)C1=O | ? | 7.5µM* | 1% | -3 | -21% | -6% |
| O=C(O)CCCCC1SCC2NC(=O)NC21 (stereo not given) | 6% | -11% | ? | 5 | -4% | -10% |
| CCCOc1ccc(C(=O)NC(=S)N2C[C@H]3C[C@H](C2)c2cccc(=O)n2C3)cc1 | -18% | 27µM* | -3% | ? | -10% | -23% |
| COc1ccc(C(=O)NC(=S)N2C[C@H]3C[C@H](C2)c2cccc(=O)n2C3)cc1OC | 5% | -10% | 1% | 1 | -1% | -3% |
| Cc1cc(C)cc(N2C(=O)/C(=C\c3ccc(N4CCN(C)CC4)o3)C(=O)NC2=S)c1 | -3% | 119% | 52µM* | -9 | ? | 4% |
| O=C1NC(=O)C(=Cc2ccc(N3CCOCC3)o2)C(=O)N1 | 3% | 85% | ? | 0 | -13% | 3% |
| C=CCN1C(=O)/C(=C/c2ccc(N3CCOCC3)o2)C(=O)NC1=S | -5% | 78% | 58µM* | -8 | 1% | 1% |
| CCCCCC1C(=O)O[C@H](C)[C@@H](NC(=O)c2cccc(NC=O)c2O)C(=O)OC(C)C1OC(=O)CC(C)C (stereo not given in full) | -3% | · | · | · | · | ? |
| CC(=NCc1cccnc1)c1c(O)n(Cc2ccccc2)c(=O)[nH]c1=O | -3% | -9% | 1% | · | 12% | 1% |
| O=C(N/N=C/c1c(O)n(Cc2ccccc2)c(=O)[nH]c1=O)c1ccccc1O | -15% | 1% | -5% | -70* | -9% | -17% |
| CC/C(=N\NC(=O)c1ccccc1Cl)c1c(O)n(C2CCCCC2)c(=O)[nH]c1=O | 4% | -12% | ? | -1 | 7% | -27% |

Screening results (PubChem)
